Screening results deposited in PubChem by National Center for Advancing Translational Sciences (NCATS).
Sfp PPTase inh = inhibitors of Bacillus subtilis Sfp phosphopantetheinyl transferase; Q9F4F7; Biochemical Sfp PPTase activity, qHTS; Potency, µM, most hits filed as inhibitors; 310,000 compounds, 3.5% hits;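 further: the enzyme is Sfp with the accession as filed and its product quenches rhodamine fluorescence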
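Fluorescence-quenching assay: 15 nM Sfp-PPTase preincubated 15 min at room temperature with compound, then 5 uM rhodamine-CoA and 12.5 uM BHQ-2-labelled YbbR peptide added. Fluorescence (ex 525/em 598 nm) read at start and after 30 min; difference gives rate.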
LMNA splice mod = LMNA splicing modulation; HeLa LMNA splicing GFP/RFP minigene ratio, 48 h; Potency, µM (titrated, usually from 46.1 µM), most hits filed as inhibitors; 200,000 compounds, 0.01% hits; active means well fitted inhibition curve with a large enough effect in the signal ratio, with a control signal flat, not every such curve was filed as active; inconclusive means small, poorly fitted or top-dose-only effect, or effect the other way, or a change in a side signal; the % refers to the signal ratio
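Read-out is the ratio of GFP to DsRed2 object intensity, acquired by 488 nm laser-scanning cytometry on HeLa lamin A-EGFP minigene reporter cells. Compound incubation 48 hrs at 37 °C in Opti-MEM with 2% FBS; DMSO 0.5% final.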
ALDH1A1 block = inhibitors of human aldehyde dehydrogenase 1A1 | P00352 | Purified ALDH1A1, NADH fluorescence, propionaldehyde substrate | Potency, µM (highest dose often 75.3 µM), most hits filed as inhibitors | 220,000 compounds, 7.3% hits; active means well fitted inhibition curve with a large enough effect, not every such curve was filed as active; inconclusive means small, poorly fitted or top-dose-only effect, or another doubt; inactive means no such curve, though single readings can be large or run the other way
KDM4E inh = inhibitors of human JMJD2E histone demethylase; JMJD2E catalytic domain, FDH-coupled NADH fluorescence (FDH is formaldehyde dehydrogenase); Potency, µM (doses to about 57.1 µM), most hits filed as inhibitors; 230,000 compounds, 1.6% hits; AID 2147; active means well fitted inhibition curve with a large enough effect, not every such curve was filed as active; inconclusive means small, poorly fitted or top-dose-only effect, or another doubt; inactive means no such curve, though single readings can be large or run the other way; further: nearly all actives have a fitted effect of over 50% in size
G9a block = blocks human histone lysine methyltransferase G9a; Q96KQ7; Potency, µM (titrated, usually from 102 µM), hits mostly inhibitors; G9a H3K9 monomethylation, AlphaScreen, 2 h; AID 504332; 350,000 compounds, 8.8% hits; further: nearly all actives have a fitted effect of over 75% in size
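Enzyme 20 nM + cpd, 15 min RT; add b-H3K9 pep 500 nM / SAM 20 uM; 2 h RT; anti-H3K9me1 Ab 0.5 ug/mL + SA donor / anti-rabbit acceptor beads 20 ug/mL each, 10 min; AlphaScreen read.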
miR-21 reporter = raises the signal of a miR-21 reporter | HeLa miR-21 FLuc reporter, luciferase, 48 h | Potency, µM (doses to about 38.3 µM) | 340,000 tested, under 10 active | AID 2288; active = well fitted rising curve with a large enough effect; inconclusive = small, poorly fitted or top-dose-only effect; inactive = no such curve, though single readings can be large or run the other way;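 also: miR-21 action dims this reporter so a rising signal means less miR-21 action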
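HeLa cells stably expressing CMV-driven firefly luciferase with a downstream miR-21 binding sequence, endogenously expressing miR-21, were treated with titrations (up to about 40uM final) for 48 hours at 37 degree Celsius. Luciferase luminescence was read after lysis.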
Each line names hits and unclear results; the compound was inactive in the other large screens. Sampled rows, rich in hits. Any-hit rate of the full collection: about 13%. Unless noted, the call rests on the fitted dose curve; in most records, active means well fitted curve in the direction sought with a large enough effect; inconclusive means small, poorly fitted or top-dose-only effect, or another doubt; inactive means no such curve, though single readings can be large; an effect the other way counts as inactive or inconclusive.

Cc1cc(/C=C2/NC(=O)NC2=O)c(C)n1-c1sc2c(c1C#N)CCCC2	Sfp PPTase inh inconclusive, LMNA splice mod inconclusive, ALDH1A1 block 13µM, KDM4E inh inconclusive
Cc1cc(C)c(-n2c(C)cc(/C=C3/NC(=O)NC3=O)c2C)c(C)c1	LMNA splice mod inconclusive, ALDH1A1 block 14µM, KDM4E inh inconclusive, G9a block inconclusive
Cc1cc(/C=C2/NC(=O)NC2=O)c(C)n1-c1ccncc1	none (no result: LMNA splice mod)
Cc1cccc(-n2c(C)cc(/C=C3\NC(=O)NC3=O)c2C)c1	KDM4E inh inconclusive, G9a block 45µM (no result: LMNA splice mod, ALDH1A1 block)
O=c1[nH]c2ccc([N+](=O)[O-])cc2nc1/C=C(\O)c1ccccc1	G9a block inconclusive (no result: LMNA splice mod, ALDH1A1 block)
Cc1nc(C)c(/C(O)=C\c2nc3ccc([N+](=O)[O-])cc3oc2=O)o1	Sfp PPTase inh 56µM, KDM4E inh 20µM, G9a block inconclusive (no result: LMNA splice mod, ALDH1A1 block)
CC(=O)c1ccc(NC(=O)CSc2nc3c(=O)n(C)c(=O)n(C)c3n2C)cc1	none (no result: Sfp PPTase inh, ALDH1A1 block, KDM4E inh)
Cc1ccc(NC(=O)c2cnc3cc(C)ccn3c2=O)c(C)c1	none (no result: Sfp PPTase inh, LMNA splice mod, ALDH1A1 block, KDM4E inh)
CCN(CC)c1ccc(NC(=O)c2cccc(C)c2OC)c(C)c1	LMNA splice mod inconclusive, ALDH1A1 block inconclusive, G9a block 3.5µM
CCN(CC)c1ccc(-n2nc3cc(C)c(NC(=O)c4ccccc4C)cc3n2)c(C)c1	none (no result: Sfp PPTase inh, LMNA splice mod, ALDH1A1 block, KDM4E inh)
CCN(CC)c1ccc(NC(=O)c2cnc3ccccn3c2=O)c(C)c1	G9a block 1.8µM
CCN(CC)c1ccc(NC(=O)c2cccnc2)c(C)c1	G9a block 32µM
CCCCOc1ccc(C2C(=O)N(C3CCCCC3)CC(=O)N2C2CCCCC2)cc1 (stereo not given)	none (no result: Sfp PPTase inh, ALDH1A1 block, KDM4E inh)
CC(=O)N(C)c1cccc(-c2ccc3nnc(C)n3n2)c1	none (no result: LMNA splice mod, ALDH1A1 block, KDM4E inh)
CC(C)c1nc2cc(C(=O)N3CCN(c4cnccn4)CC3)ccc2o1	G9a block inconclusive (no result: LMNA splice mod, ALDH1A1 block, KDM4E inh)
COc1ccc(S(=O)(=O)N2Cc3ccccc3CC2C(=O)Nc2cc(Cl)ccc2Cl)cc1 (stereo not given)	none (no result: Sfp PPTase inh, LMNA splice mod, ALDH1A1 block, KDM4E inh)
CN1C(=O)C(Cc2cnc[nH]2)NC1=S (stereo not given)	Sfp PPTase inh 79µM, G9a block 28µM (no result: LMNA splice mod, ALDH1A1 block, KDM4E inh)
COc1ccc(S(=O)(=O)Nc2cc3c4c(c2)CC(=O)N4CCC3)cc1	G9a block 32µM (no result: Sfp PPTase inh, LMNA splice mod, ALDH1A1 block, KDM4E inh, miR-21 reporter)
O=C1Cc2cc(NS(=O)(=O)c3ccc([N+](=O)[O-])cc3)cc3c2N1CCC3	G9a block 45µM (no result: Sfp PPTase inh, LMNA splice mod, ALDH1A1 block, KDM4E inh, miR-21 reporter)
COc1ccc(F)cc1S(=O)(=O)Nc1cc2c3c(c1)CCN3C(=O)CC2	G9a block 45µM (no result: Sfp PPTase inh, LMNA splice mod, ALDH1A1 block, KDM4E inh, miR-21 reporter)
CCN(CC)S(=O)(=O)c1ccc2c(c1)N(CC(=O)NCc1ccc(F)cc1)C(=O)CO2	none (no result: Sfp PPTase inh, LMNA splice mod, ALDH1A1 block, KDM4E inh)
COc1ccc(-n2cc(C(=O)Nc3ccccc3C#N)c3ccccc3c2=O)cc1	LMNA splice mod inconclusive (no result: Sfp PPTase inh, ALDH1A1 block, KDM4E inh)
O=C(NC1CCCC1)C(c1cccs1)N(C(=O)c1csnn1)c1ccccc1F (stereo not given)	none (no result: LMNA splice mod, ALDH1A1 block, KDM4E inh)
N#CC1=C(N)C(C#N)(C#N)C(c2cccnc2)C2CCCC=C12 (stereo not given)	Sfp PPTase inh 18µM, ALDH1A1 block inconclusive, KDM4E inh inconclusive, G9a block 45µM
N#CC1=C(N)C2=CCCC[C@H]2[C@H](c2cccc(F)c2)C1(C#N)C#N	LMNA splice mod inconclusive, ALDH1A1 block inconclusive
N#CC1=C(N)C(C#N)(C#N)C(c2ccc[nH]2)C2CCCC=C12 (stereo not given)	Sfp PPTase inh 56µM, ALDH1A1 block inconclusive, KDM4E inh inconclusive, G9a block 35µM
c1cn(-c2cc(-c3ccc4c(c3)OCO4)ncn2)cn1	LMNA splice mod inconclusive, ALDH1A1 block inconclusive (no result: KDM4E inh, miR-21 reporter)
CCOCCc1nn2c(=O)cc(COC(=O)c3ccc(NC(=O)C(C)(C)C)cc3)nc2s1	none (no result: Sfp PPTase inh, ALDH1A1 block, KDM4E inh)
Cc1ccc(S(=O)(=O)N2CCN(CCC#N)CC2)cc1	Sfp PPTase inh 79µM, G9a block 7.1µM (no result: LMNA splice mod)
N#CCCN1CCN(S(=O)(=O)c2ccc(S(=O)(=O)NC3CCCC3)cc2)CC1	G9a block 35µM
Cc1ccc(-c2nc3ccccc3[nH]2)s1	Sfp PPTase inh 50µM, ALDH1A1 block inconclusive, KDM4E inh inconclusive, G9a block 7.9µM
Cn1cccc1-c1nc2ccc(NC(=O)c3ccccc3)cc2[nH]1	G9a block inconclusive
Cn1cccc1-c1nc2ccccc2[nH]1	KDM4E inh inconclusive, G9a block 45µM (no result: LMNA splice mod, ALDH1A1 block)
O=C(O)c1ccccc1-c1nc2ccccc2[nH]1	KDM4E inh inconclusive, G9a block 45µM
Cc1nnsc1-c1nc2ccccc2[nH]1	ALDH1A1 block inconclusive, KDM4E inh inconclusive, G9a block 28µM
c1csc(-c2nc3ccccc3[nH]2)c1	ALDH1A1 block inconclusive, KDM4E inh inconclusive, G9a block inconclusive
Cc1nc(SCC(=O)OC(C)(C)C)c2c3c(sc2n1)CCCC3	none (no result: Sfp PPTase inh, LMNA splice mod, ALDH1A1 block, KDM4E inh)
CCc1ccc(OCC(=O)Nc2nnc(C3CCCC3)s2)cc1	none (no result: LMNA splice mod, ALDH1A1 block, KDM4E inh)
Cc1nc(Oc2ccc(F)cc2Cl)c2oc3ccccc3c2n1	none (no result: Sfp PPTase inh, ALDH1A1 block, KDM4E inh)
COc1ccc(CN(C(=O)c2nsc(Cl)c2Cl)C(C(=O)NC2CCCC2)c2ccc(C)cc2)cc1 (stereo not given)	ALDH1A1 block 13µM
COc1ccc(CN(C(=O)c2snc(C(N)=O)c2N)C(C(=O)NC2CCCC2)c2ccc(OC)c(OC)c2)cc1 (stereo not given)	none (no result: LMNA splice mod, ALDH1A1 block, KDM4E inh)
COc1ccc(CN(C(=O)c2nsc(Cl)c2Cl)C(C(=O)NC2CCCCC2)c2ccc(OC)cc2)cc1 (stereo not given)	ALDH1A1 block 7.1µM
